# B1: SAMHD1 (Homo sapiens) (protein)
# chain: MQRADSEQPSKRPRCDDSPRTPSNTPSAEADWSPGLELHPDYKTWGPEQVCSFLRRGGFEEPVLLKNIRENEITGALLPCLDESRFENLGVSSLGERKKLLSYIQRLVQIHVDTMKVINDPIHGHIELHPLLVRIIDTPQFQRLRYIKQLGGGYYVFPGASHNRFEHSLGVGYLAGCLVHALGEKQPELQISERDVLCVQIAGLCHDLGHGPFSHMFDGRFIPLARPEVKWTHEQGSVMMFEHLINSNGIKPVMEQYGLIPEEDICFIKEQIVGPLESPVEDSLWPYKGRPENKSFLYEIVSNKRNGIDVDKWDYFARDCHHLGIQNNFDYKRFIKFARVCEVDNELRICARDKEVGNLYDMFHTRNSLHRRAYQHKVGNIIDTMITDAFLKADDYIEITGAGGKKYRISTAIDDMEAYTKLTDNIFLEILYSTDPKLKDAREILKQIEYRNLFKYVGETQPTGQIKIKREDYESLPKEVASAKPKVLLDVKLKAEDFIVDVINMDYGMQEKNPIDHVSFYCKTAPNRAIRITKNQVSQLLPEKFAEQLIRVYCKKVDRKSLYAARQYFVQWCADRNFTKPQDGDVIAPLITPQKKEWNDSTSVQNPTRLREASKSRVQLFKDDPM
# Experiments:
# Assay in all cases: purified protein
# purified protein [1] = substrate: Cc1cn([C@H]2C[C@H](O)[C@@H](CO[P@@](O)(=S)OP(=O)(O)OP(=O)(O)O)O2)c(=O)[nH]c1=O; settings: Mg2+; GTP as AL1 activator active site; AL2 activator
# purified protein [2] = substrate: Nc1ccn([C@H]2C[C@H](O)[C@@H](CO[P@@](O)(=S)OP(=O)(O)OP(=O)(O)O)O2)c(=O)n1; settings: Mg2+; GTP as AL1 activator active site
# purified protein [3] = substrate: Nc1nc2c(ncn2[C@H]2C[C@H](O)[C@@H](COP(=O)(O)OP(=O)(O)OP(=O)(O)O)O2)c(=O)[nH]1; settings: Mg2+; GTP as AL1 activator active site; AL1/AL2 activator
# purified protein [4] = substrate: Nc1nc2c(ncn2[C@H]2C[C@H](O)[C@@H](CO[P@@](O)(=S)OP(=O)(O)OP(=O)(O)O)O2)c(=O)[nH]1; settings: Mg2+, Fe active site; also allosteric activator at AL1 and AL2
# purified protein [5] = substrate: Nc1ncnc2c1ncn2[C@H]1C[C@H](O)[C@@H](CO[P@@](O)(=S)OP(=O)(O)OP(=O)(O)O)O1; settings: Mg2+; GTP as AL1 activator active site; AL2 activator
protein,measurement,setting,value
B1,Km,purified protein [1],38 ± 4 µM
same,kcat,purified protein [1],0.26 ± 0.01 s⁻¹
same,Km,purified protein [2],54 ± 4 µM
same,kcat,purified protein [2],0.12 ± 0.01 s⁻¹
same,Km,purified protein [3],24 ± 2 µM
same,kcat,purified protein [3],0.27 s⁻¹
same,Km,purified protein [4],10 ± 0.5 µM
same,kcat,purified protein [4],0.09 ± 0.01 s⁻¹
same,Km,purified protein [5],53 ± 2 µM
same,kcat,purified protein [5],0.23 ± 0.01 s⁻¹

# From paper PMC8173608, “Probing the Catalytic Mechanism and Inhibition of SAMHD1 Using the Differential Properties of Rp- and Sp-dNTPαS Diastereomers” (Biochemistry, 2021)
